{"source": "patent US20230293599A1", "about": "“BACTERIAL COMPOSITIONS WITH ANTI-INFLAMMATORY ACTIVITY” (Universiteit Gent, priority 2020, published 2023)", "conditions_in_all_cases": "35 hours, absorbance 590 nm, n = 1; cells without values AUC < 50", "key": {"S. aureus": {"system": "S. aureus", "type": "cell-based, Staphylococcus aureus", "experimental": "(§1) Using Phenotype Microarray (PM) panels (Biolog), the influence of 190 carbon sources on the growth of the potential probiotic species R. mucilaginosa, R. dentocariosa, R. gilardii, G. haemolysans, and common respiratory pathogens P. aeruginosa, and S. aureus was determined. PM1 and PM2 panels (Biolog) were inoculated according to the manufacturer's instructions. Growth curves were generated for 35 hours by measuring the absorbance at 590 nm using an EnVision (Perkin Elmer) plate reader."}, "P. aeruginosa": {"system": "P. aeruginosa", "experiment": "Biolog Phenotype Microarray PM1-2 growth on carbon sources", "type": "cell-based, Pseudomonas aeruginosa", "experimental": "as §1"}, "R. gilardii": {"system": "R. gilardii", "experiment": "Biolog Phenotype Microarray PM1-2 growth on carbon sources", "type": "cell-based, Roseomonas gilardii", "experimental": "as §1"}}}
{"smiles": "O=C(O)CCC(=O)C(=O)O", "note": "[α-Keto-Glutaric Acid]", "values": [{"measurement": "AUC of growth curve, S. aureus", "setting": "S. aureus", "value": 755.7}, {"measurement": "AUC of growth curve, P. aeruginosa", "setting": "P. aeruginosa", "value": 555.1}, {"measurement": "AUC of growth curve, R. gilardii", "setting": "R. gilardii", "value": 160.6}]}
